We go through one compound from ChEMBL document CHEMBL4406897 (Bioorg Med Chem, 2019).

This experiment relates to Plasmodium falciparum. Nature of the experiment: Potency index, ratio of Ki for 5-(3-chlorophenyl)-6-ethylpyrimidine-2,4-diamine to KI for compound for competitive inhibition of wild type Plasmodium falciparum dihydrofolate reductase expressed in Escherichia coli BL21(DE3)pLysS.

SMILES strings stand for the structures.

`Cl.Nc1nc(N)c(-c2cccc(Cl)c2)c(CCCOc2ccccc2)n1`: the Ratio Ki was in the range of 3 to 30.
